Assay results reported in patent US20030237104A1 (priority 2002, published 2003).

What was measured:
non-Tg mice (CB6F1) = test: Rapid carcinogenicity tests, control non-Tg littermates; settings: for forestomach papillomas incidence: single oral 2.5 mg/mouse, 13 weeks
CB6F1-HRAS2 mice = test: Rapid carcinogenicity tests with CB6F1-HRAS2 (Tg) mice

## N,N-Diethylnitrosamine
non-Tg mice (CB6F1); single i.p. 90 mg/kg, 6-month observation period
  forestomach squamous cell carcinomas and lung adenocarcinomas: never observed
CB6F1-HRAS2 mice; CB6F1-HRAS2 and control non-Tg mice
  liver tumors: neither CB6F1-HRAS2 mice nor control non-Tg mice treated with these compounds developed liver tumors
CB6F1-HRAS2 mice; Tg vs non-Tg
  incidence and multiplicity of lung adenoma: not significantly higher
CB6F1-HRAS2 mice; single i.p. 90 mg/kg, 3 months
  forestomach squamous cell carcinomas and lung adenocarcinomas: only in CB6F1-HRAS2 mice
CB6F1-HRAS2 mice; single i.p. 90 mg/kg, six months
  incidence of both types of malignant tumors: increased substantially
CB6F1-HRAS2 mice; single i.p. 90 mg/kg, six months, Tg vs non-Tg
  incidence of (lung) adenoma: significantly higher in non-Tg mice than in CB6F1-HRAS2 mice

## CN(N=O)C(=N)N[N+](=O)[O-]
non-Tg mice (CB6F1); female
  forestomach papillomas incidence: 11%
non-Tg mice (CB6F1); male
  forestomach papillomas incidence: 0%
CB6F1-HRAS2 mice; male and female, single oral 2.5 mg/mouse, 13 weeks
  forestomach papillomas incidence: 100%
CB6F1-HRAS2 mice; single oral 2.5 mg/mouse, 26 weeks, Tg vs non-Tg
  squamous cell carcinomas: observed only in MNNG-treated CB6F1-HRAS2 mice
